Results published in patent publication US4892887A, “N,N'-bis(sulfonyl)hydrazines having antineoplastic activity” (Yale University, priority 1988, dated 1990).

Key:
B16 melanoma = experiment: Survival time of mice bearing the B16 melanoma; parameters: species or system mouse (C57B1 mice); details: mouse, in vivo
B16 melanoma cells = experiment: Cytotoxicity: colony-forming ability of B16 melanoma cells; assay type: cell-based; details: compared with compound 8
Description: The cytotoxicity of compounds 8 and 12 was determined by measuring their effects on the colony-forming ability of B16 melanoma cells. The cells were maintained in Eagle's minimum essential medium supplemented with 10% fetal bovine serum. To obtain exponentially growing B16 melanoma cells, a 25 cm^2 flask was inoculated with 10^5 cells for two days before addition of drug. The cell monolayer was exposed to various concentrations of compound for 1 hour. After exposure, the layer was washed twice with PBS to remove the compound. The cells were harvested with 2 mM EDTA in PBS, and 200 cells were plated on a 60 mm dish with 5 mL of medium. After incubation for 12 days, the colonies were stained with crystal violet and counted. […] The LD50 was determined from the individual dose-response curves.

Structure (SMILES): Cc1ccc(S(=O)(=O)N(C)NS(C)(=O)=O)cc1 [Compound 12]
- activity against the B16 melanoma (in words) (B16 melanoma): appreciable levels of activity against the B16 melanoma
- toxicity to B16 melanoma cells in culture relative to compound 8 (B16 melanoma cells): approximately four-times more toxic
